One test has as its target T1, CRF2R (Homo sapiens, UniProt Q13324).
T1 sequence (Q13324 1-411): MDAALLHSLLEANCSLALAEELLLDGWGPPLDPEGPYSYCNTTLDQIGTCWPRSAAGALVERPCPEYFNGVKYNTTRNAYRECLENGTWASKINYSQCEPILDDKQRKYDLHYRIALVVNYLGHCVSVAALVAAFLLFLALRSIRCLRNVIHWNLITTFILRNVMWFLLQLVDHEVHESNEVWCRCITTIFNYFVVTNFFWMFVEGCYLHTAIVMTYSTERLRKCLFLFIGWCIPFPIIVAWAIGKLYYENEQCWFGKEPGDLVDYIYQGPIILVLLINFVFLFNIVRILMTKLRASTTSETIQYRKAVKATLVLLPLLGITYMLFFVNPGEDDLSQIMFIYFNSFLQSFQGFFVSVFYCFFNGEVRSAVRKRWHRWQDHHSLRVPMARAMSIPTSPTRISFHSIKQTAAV
As to the kind of experiment: CRF2R agonist activity (EC50 and Emax), called comparative CRF binding. In kind it is cell-based. The conditions noted are these: CRF2R EC50 (nM), CRF2R. A digest of the protocol:
(§1)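 Cells expressing only CRF1R or CRF2R (or recombinant receptor) were contacted with peptide or vehicle control. Receptor activation was measured as cAMP induction in cell lysates or via a cAMP-responsive-element reporter gene.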

For another test, the target named is T2, CRF1R (Homo sapiens, UniProt P34998).
T2 sequence (P34998 24-415): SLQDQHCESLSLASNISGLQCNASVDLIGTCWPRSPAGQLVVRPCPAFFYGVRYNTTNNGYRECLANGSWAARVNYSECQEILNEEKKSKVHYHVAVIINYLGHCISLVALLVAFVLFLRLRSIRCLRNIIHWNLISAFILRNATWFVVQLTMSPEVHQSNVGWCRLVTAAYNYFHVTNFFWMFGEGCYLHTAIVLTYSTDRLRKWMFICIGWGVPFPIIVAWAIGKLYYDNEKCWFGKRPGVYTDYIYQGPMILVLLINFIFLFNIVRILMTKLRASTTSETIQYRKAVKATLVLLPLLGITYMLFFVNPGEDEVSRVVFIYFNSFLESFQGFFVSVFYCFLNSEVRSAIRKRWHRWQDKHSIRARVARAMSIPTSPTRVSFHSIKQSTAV
Description: CRF1R agonist activity (EC50 and Emax), called comparative CRF binding. The conditions noted are these: CRF1R EC50 (nM), CRF1R. Format: cell-based. In outline: as §1

Some results are limits rather than exact numbers.

For orientation: EC50 means the concentration needed to bring the measured effect to its halfway point. In the case of `CC[C@H](C)[C@H](NC(=O)[C@@H](NC(=O)[C@H](CC(=O)O)NC(=O)[C@H](CC(C)C)NC(=O)[C@H](CC(C)C)NC(=O)[C@H](CC(C)C)NC(=O)[C@H](CCCNC(=N)N)NC(=O)[C@H](CC(N)=O)NC(=O)[C@H](CC(N)=O)NC(=O)[C@H](C)NC(=O)[C@H](C)NC(=O)[C@H](CCC(N)=O)NC(=O)[C@H](CCC(N)=O)NC(=O)[C@H](CCCCN)NC(=O)[C@H](CCC(=O)O)NC(=O)[C@H](CCCCN)NC(=O)[C@H](CCC(=O)O)NC(=O)[C@H](CCC(N)=O)NC(=O)[C@H](CCCCN)NC(=O)[C@H](CCC(=O)O)NC(=O)[C@@H](NC(=O)[C@H](CCC(=O)O)NC(=O)[C@@H](NC(=O)[C@H](CCSC)NC(=O)[C@H](CCCCN)NC(=O)[C@H](CCCNC(=N)N)NC(=O)[C@H](CC(C)C)NC(=O)[C@H](CC(C)C)NC(=O)[C@H](CC(=O)O)NC(=O)[C@@H](NC(=O)[C@@H]1CCCN1C(=O)[C@H](CC(C)C)NC(=O)[C@H](CC(=O)O)NC(=O)[C@@H](NC(=O)[C@H](CO)NC(=O)[C@@H](NC(=O)[C@@H]1CCCN1C(=O)[C@@H]1CCCN1C(=O)CNC(=O)[C@@H]1CCC(=O)N1)[C@@H](C)CC)[C@@H](C)CC)[C@@H](C)O)[C@@H](C)CC)[C@@H](C)CC)[C@@H](C)O)C(N)=O` [compound 49], the EC50 on CRF2R was > 100 nM; at CRF1R, > 1000 nM.

Turning to `CC[C@H](C)[C@H](NC(=O)[C@@H](NC(=O)[C@H](CC(=O)O)NC(=O)[C@H](CC(C)C)NC(=O)[C@H](CC(C)C)NC(=O)[C@H](CC(C)C)NC(=O)[C@H](CCCNC(=N)N)NC(=O)[C@H](CC(N)=O)NC(=O)[C@H](CC(N)=O)NC(=O)[C@H](C)NC(=O)[C@H](C)NC(=O)[C@H](CCC(N)=O)NC(=O)[C@H](CCC(N)=O)NC(=O)[C@H](CCCCN)NC(=O)[C@H](CCC(=O)O)NC(=O)[C@H](CCCCN)NC(=O)[C@H](CCC(=O)O)NC(=O)[C@H](CCC(N)=O)NC(=O)[C@H](CCCCN)NC(=O)[C@H](CCC(=O)O)NC(=O)[C@@H](NC(=O)[C@H](CCC(=O)O)NC(=O)[C@@H](NC(=O)[C@H](CCSC)NC(=O)[C@H](CCCCN)NC(=O)[C@H](CCCNC(=N)N)NC(=O)[C@H](CC(C)C)NC(=O)[C@H](CC(C)C)NC(=O)[C@@H]1CCCN1C(=O)[C@@H](NC(=O)[C@@H]1CCCN1C(=O)[C@H](CC(C)C)NC(=O)[C@H](CC(=O)O)NC(=O)[C@@H](NC(=O)[C@H](CO)NC(=O)[C@@H](NC(=O)[C@@H]1CCCN1C(=O)[C@@H]1CCCN1C(=O)CNC(=O)[C@@H]1CCC(=O)N1)[C@@H](C)CC)[C@@H](C)CC)[C@@H](C)O)[C@@H](C)CC)[C@@H](C)CC)[C@@H](C)O)C(N)=O` [compound 52], the EC50 on CRF2R is > 100 nM; on CRF1R, > 1000 nM.

`CC[C@H](C)[C@H](NC(=O)[C@@H](NC(=O)[C@H](CC(=O)O)NC(=O)[C@H](CC(C)C)NC(=O)[C@H](CC(C)C)NC(=O)[C@H](CC(C)C)NC(=O)[C@H](CCCNC(=N)N)NC(=O)[C@H](CC(N)=O)NC(=O)[C@H](CC(N)=O)NC(=O)[C@H](C)NC(=O)[C@H](C)NC(=O)[C@H](CCC(N)=O)NC(=O)[C@H](CCC(N)=O)NC(=O)[C@H](CCCCN)NC(=O)[C@H](CCC(=O)O)NC(=O)[C@H](CCCCN)NC(=O)[C@H](CCC(=O)O)NC(=O)[C@H](CCC(N)=O)NC(=O)[C@H](CCCCN)NC(=O)[C@H](CCC(=O)O)NC(=O)[C@@H](NC(=O)[C@H](CCC(=O)O)NC(=O)[C@@H](NC(=O)[C@H](CCSC)NC(=O)[C@H](CCCCN)NC(=O)[C@H](CCCNC(=N)N)NC(=O)[C@H](CC(C)C)NC(=O)[C@H](CC(C)C)NC(=O)[C@H](CO)NC(=O)[C@@H](NC(=O)[C@@H]1CCCN1C(=O)[C@H](CC(C)C)NC(=O)[C@H](CC(=O)O)NC(=O)[C@@H](NC(=O)[C@H](CO)NC(=O)[C@@H](NC(=O)[C@@H]1CCCN1C(=O)[C@@H]1CCCN1C(=O)CNC(=O)[C@@H]1CCC(=O)N1)[C@@H](C)CC)[C@@H](C)CC)[C@@H](C)CC)[C@@H](C)CC)[C@@H](C)CC)[C@@H](C)O)C(N)=O` [compound 53]: the EC50 on CRF2R is > 100 nM; on CRF1R it was > 1000 nM.

With `CC[C@H](C)[C@H](NC(=O)[C@@H](NC(=O)[C@H](CC(=O)O)NC(=O)[C@H](CC(C)C)NC(=O)[C@H](CC(C)C)NC(=O)[C@H](CC(C)C)NC(=O)[C@H](CCCNC(=N)N)NC(=O)[C@H](CC(N)=O)NC(=O)[C@H](CC(N)=O)NC(=O)[C@H](C)NC(=O)[C@H](C)NC(=O)[C@H](CCC(N)=O)NC(=O)[C@H](CCC(N)=O)NC(=O)[C@H](CCCCN)NC(=O)[C@H](CCC(=O)O)NC(=O)[C@H](CCCCN)NC(=O)[C@H](CCC(=O)O)NC(=O)[C@H](CCC(N)=O)NC(=O)[C@H](CCCCN)NC(=O)[C@H](CCC(=O)O)NC(=O)[C@@H](NC(=O)[C@H](CCC(=O)O)NC(=O)[C@@H](NC(=O)[C@H](CCSC)NC(=O)[C@H](CCCCN)NC(=O)[C@H](CCCNC(=N)N)NC(=O)[C@H](CC(C)C)NC(=O)[C@H](CC(C)C)NC(=O)[C@H](Cc1ccc(O)cc1)NC(=O)[C@H](CC(=O)O)NC(=O)[C@@H]1CCCN1C(=O)[C@H](CC(C)C)NC(=O)[C@H](CC(=O)O)NC(=O)[C@@H](NC(=O)[C@H](CO)NC(=O)[C@@H](NC(=O)[C@@H]1CCCN1C(=O)[C@@H]1CCCN1C(=O)CNC(=O)[C@@H]1CCC(=O)N1)[C@@H](C)CC)[C@@H](C)CC)[C@@H](C)CC)[C@@H](C)CC)[C@@H](C)O)C(N)=O` [compound 54], the EC50 on CRF2R was ≥ 100 nM; on CRF1R, ≥ 1000 nM.

As to `CC[C@H](C)[C@H](NC(=O)[C@@H](NC(=O)[C@H](CC(=O)O)NC(=O)[C@H](CC(C)C)NC(=O)[C@H](CC(C)C)NC(=O)[C@H](CC(C)C)NC(=O)[C@H](CCCNC(=N)N)NC(=O)[C@H](CC(N)=O)NC(=O)[C@H](CC(N)=O)NC(=O)[C@H](C)NC(=O)[C@H](C)NC(=O)[C@H](CCC(N)=O)NC(=O)[C@H](CCC(N)=O)NC(=O)[C@H](CCCCN)NC(=O)[C@H](CCC(=O)O)NC(=O)[C@H](CCCCN)NC(=O)[C@H](CCC(=O)O)NC(=O)[C@H](CCC(N)=O)NC(=O)[C@H](CCCCN)NC(=O)[C@H](CCC(=O)O)NC(=O)[C@@H](NC(=O)[C@H](CCC(=O)O)NC(=O)[C@@H](NC(=O)[C@H](CCSC)NC(=O)[C@H](CCCCN)NC(=O)[C@H](CCCNC(=N)N)NC(=O)[C@H](CC(C)C)NC(=O)[C@H](CC(C)C)NC(=O)[C@H](Cc1ccc(O)cc1)NC(=O)[C@H](Cc1c[nH]c2ccccc12)NC(=O)[C@@H]1CCCN1C(=O)[C@H](CC(C)C)NC(=O)[C@H](CC(=O)O)NC(=O)[C@@H](NC(=O)[C@H](CO)NC(=O)[C@@H](NC(=O)[C@@H]1CCCN1C(=O)[C@@H]1CCCN1C(=O)CNC(=O)[C@@H]1CCC(=O)N1)[C@@H](C)CC)[C@@H](C)CC)[C@@H](C)CC)[C@@H](C)CC)[C@@H](C)O)C(N)=O` [compound 55], the EC50 on CRF2R worked out at 7.95 nM; on CRF1R it was 11.6 nM.
